From ChEMBL document CHEMBL2203264, “Optimization of imidazo[4,5-b]pyridine-based kinase inhibitors: identification of a dual FLT3/Aurora kinase inhibitor as an orally bioavailable preclinical development candidate for the treatment of acute myeloid leukemia” (J Med Chem, 2012)

Test system: MOLM-13
Experiment: Growth inhibition of human MOLM13 cells
Type: functional

Cc1nn(C)cc1-c1nc2c(N3CCN(Cc4ccc(Cl)cc4)CC3)c(Cl)cnc2[nH]1 [MOBINITINIB] was tested, and the GI50 was 104 nM.
